Measured affinities in a library of Ab-95 light chain variants

The measurements come from Engelhart et al. 2022 (doi:10.1038/s41597-022-01779-4) through the FLAb antibody collection.

Antigen: PDVDLGDISGINAS, a 14-residue peptide of the SARS-CoV-2 spike HR2 region.

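The starting antibody came from a phage panning campaign against this peptide. The library (AAYL52) carries one to three amino acid substitutions per variant, with no insertions or deletions. The assay is AlphaSeq: two haploid yeast populations carry antibody and antigen on their surface. The frequency of each diploid, read from paired DNA barcodes, reflects how well the two displayed proteins bind. Each replicate has its own calibration line, from reference interactions of the BCL2 family. There are three technical replicates.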

Ab-95 is the parent antibody, in scFv form: VH, then three GGGGS repeats, then VL. The heavy chain is unchanged in all variants.
VH: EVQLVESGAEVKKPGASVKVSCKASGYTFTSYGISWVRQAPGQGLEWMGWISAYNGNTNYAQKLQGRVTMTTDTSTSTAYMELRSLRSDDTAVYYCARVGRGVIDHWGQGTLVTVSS
VL: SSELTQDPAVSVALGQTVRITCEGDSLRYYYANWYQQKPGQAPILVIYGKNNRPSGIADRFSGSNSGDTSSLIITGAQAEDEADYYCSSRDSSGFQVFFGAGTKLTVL

Variants are written as CDR1, CDR2 and CDR3 of the light chain (limits as in the source). Parent: EGDSLRYYYAN, GKNNRPS, SSRDSSGFQVF. Numbers give log10(Kd / nM), so 0 is 1 nM and 3 is 1 µM. Smaller is tighter. The mean shown is taken over the replicates in which the pair was detected. Where no diploid with the target was found in any replicate, the entry reads "not detected": below detection, most likely a poor binder, though not proof of it.

mean, log10 nM	detected	control signals	CDR-L1	CDR-L2	CDR-L3
3.84	1/3	2/9	EGDSTRYYYAN	GKNNFPS	SSRDSSGFQVF
3.32	3/3	2/9	EGDSLRNYRAN	GKNNRPS	SSHDSSGFQVF
3.14	3/3	2/9	EGMSLRYYYAQ	GKNNRPK	SSRDSSGFQVF
4.36	2/3	1/9	EGDSLRYYYAN	GKNNRWP	SSRDSSVFQVF
not detected	0/3	0/9	EGGSLRYYVAN	GKNIRPS	SSRDSSGFQVF
2.16	3/3	2/9	QGDSLGYYYAN	GKNNRPS	SDRDSSGFQVF
3.89	2/3	2/9	EGQRLRTYYAN	GKNNRPS	SSRDSSGFQVF
2.52	3/3	4/9	EGDSLDYYYAN	GKNNRPS	SSRISSGFQVF
2.19	3/3	3/9	EGDSLRNYYAN	GKNNRPS	SSRESSKFQVF
3.20	2/3	1/9	EGDSLRRYYAN	GKCNRPS	SSRDSEGFQVF
3.40	3/3	0/9	EGKSLFYYLAN	GKNNRPS	SSRDSSGFQVF
4.51	1/3	3/9	EGDSLRYYYGN	GKNNRPS	SSRKSSNFQVF
2.47	1/3	3/9	EGDSLRYYYRN	GKNNRTS	SSEDSSGFQVF
4.19	2/3	3/9	EGDSLRYYYAN	GTNNRPS	SFIDSSGFQVF
3.48	1/3	1/9	EGDSLRYYYAN	FKNNRPL	SSRDSSYFQVF
3.17	2/3	4/9	EGDYRRYYYAD	GKNNRPS	SSRDSSGFQVF
not detected	0/3	3/9	KGDSLRYYYAA	GKNNRPS	SSRDSSDFQVF
3.27	3/3	7/9	EGTSLRYYYAN	GMNNRPS	FSRDSSGFQVF
3.92	2/3	3/9	EGDSLTYYYAF	GKNPRPS	SSRDSSGFQVF
3.15	2/3	2/9	EGDSFRYYYAN	GKNNRPS	SSRDSSDWQVF
5.84	1/3	7/9	EGDSLRYYYAN	GWNNRPS	SSRDSSHQQVF
1.14	3/3	1/9	HGDSLRYGYAN	GKNNRPS	SSRDFSGFQVF
not detected	0/3	1/9	EGDSLRYYYAN	GKNERPS	RCRDSSGFQVF
4.05	1/3	4/9	EGDSWRYYYAF	GKNNRPS	SSRDSSGFQGF
3.00	3/3	2/9	EGDSLCYYMAN	GKNNRPS	SNRDSSGFQVF
not detected	0/3	4/9	EGDSLRYYYAN	GKNNRPS	SSRRSSGEQEF
4.24	3/3	3/9	EGDSLRVYYAN	GKNNRPS	SFRDSSGFQRF
not detected	0/3	0/9	EGDSLRYYYAN	GKNNRPE	SSRVSSGFQVF
3.72	2/3	3/9	EYDSLRYYYAN	FKNNRPS	SYRDSSGFQVF
2.10	3/3	3/9	EGDSLDYYTAN	GKNNRPS	SSRSSSGFQVF
2.93	3/3	2/9	EGASLRYYYAN	GKNNRPS	SSRDQSGFLVF
2.84	3/3	2/9	LGDSLRYYYAN	GKNNRPS	SSCDSSGFQVF
2.82	3/3	6/9	EGDSLRYAYAN	GKTNRPS	SSRDSSTFQVF
3.62	1/3	3/9	EGDSFRCYYAN	GKNNRPS	SSRDSSGFQVF
5.07	1/3	2/9	EGESLRYYYAS	LKNNRPS	SSRDSSGFQVF
2.91	3/3	4/9	EGDSLKYYYAN	GKNNRPS	SSRDCSGFQPF
not detected	0/3	0/9	QGDSLRYYYAN	EKWNRPS	SSRDSSGFQVF
not detected	0/3	1/9	EGDSLRYYYAN	GKNNRPS	SSRISKGFQEF
3.82	3/3	7/9	EDDSLRYYYAN	GKNTRPS	SSRDSSGFFVF
2.30	3/3	7/9	EGDSLRNYYAN	GKNNRPS	SSRTSSGEQVF
2.92	2/3	0/9	EGDSCRFYYAN	GKNNRPS	VSRDSSGFQVF
4.42	2/3	0/9	EGDSARYYYAN	GKNNRPS	CSRDNSGFQVF
not detected	0/3	3/9	EGDSLRYYYAG	GKNNRPS	SSRDSSGFKVF
4.36	2/3	1/9	EGDSLTYYYAN	GKNNRPS	SCRDSYGFQVF
1.68	3/3	1/9	RGDSLRYYYAN	GKGNRPS	SSRDSSGFQVF
2.01	3/3	3/9	QGDSLRYDYAN	GKNNRPS	SSRDSSQFQVF
4.53	1/3	2/9	EGDSLRYYYAN	EKNNRPS	SSRDSSGTLVF
3.05	2/3	1/9	EGDSLRYYYAN	EKNVRPS	SSRDSNGFQVF
4.16	2/3	2/9	EGDRHRYYYAN	GKSNRPS	SSRDSSGFQVF
4.10	3/3	4/9	EGDSLRYYSAN	GKQNRPS	SSHDSSGFQVF
2.98	3/3	0/9	EGDHLRYYYAN	GKNNRPS	SGRLSSGFQVF
not detected	0/3	1/9	EGDSLRYYYAM	GKDNQPS	SSRDSSGFQVF
2.34	3/3	6/9	NGDSLRYYYAN	GKNNRSS	SSRDSSGFQVR
3.95	1/3	1/9	EGRSERYYYAN	GKWNRPS	SSRDSSGFQVF
2.03	3/3	8/9	GGDSLRYYYAN	GKNNRPS	SSRDNSGFIVF
not detected	0/3	0/9	EGDSLRYYYAN	GKNSRPS	CSRISSGFQVF
3.77	1/3	0/9	EGDSLRTYYAN	WKNNRPS	SSRHSSGFQVF
2.94	3/3	1/9	EGDSLRRYYAN	GKNNRPS	SSEISSGFQVF
not detected	0/3	2/9	EGDSLRLYYAN	AKNNRPS	SSRDSSGFQEF

The last 4 entries again:

CDR-L1	CDR-L2	CDR-L3	mean, log10 nM	detected	control signals
EGDSLRYYYAN	GKNSRPS	CSRISSGFQVF	not detected	0/3	0/9
EGDSLRTYYAN	WKNNRPS	SSRHSSGFQVF	3.77	1/3	0/9
EGDSLRRYYAN	GKNNRPS	SSEISSGFQVF	2.94	3/3	1/9
EGDSLRLYYAN	AKNNRPS	SSRDSSGFQEF	not detected	0/3	2/9

In this assay the parent's reference entry averaged 2.31; its copy inside this library read 2.25. Nonspecific signal, from three strains lacking the peptide, appeared in 28% of pairings of library AAYL52, centred on 3.91 (5% of these signals below 2.90); values are not corrected for it. Also given: how often the same scFv was detected with the empty control strains.